Only a part of the results on these compounds is given; other tests are left out.
How the values were obtained:
[1] = tested on: brain PMPMEase; assay: Inhibition of brain PMPMEase by OPs (brain membrane Triton X-100 extract); format: biochemical, porcine; settings: 1 mM OP, 3 h, 37° C., brain membrane Triton X-100 extract (47 μg protein), N=3
[2] = tested on: liver PMPMEase; assay: Inhibition of liver PMPMEase by OPs (liver 40,000xg supernatant); format: biochemical, porcine; settings: 1 mM OP, 1 h, 37° C., liver 40,000×g supernatant (19 μg protein), N=3

CC(C)NP(=O)(F)NC(C)C
Brain Mean (mean percent inhibition relative to the controls) [1]: 40% | Liver Mean (mean percent inhibition relative to the controls) [2]: 94%
